The record followed here is patent US6734182B2, “Aryl sulfonamides and sulfamide derivatives and uses thereof” (Synaptic Pharmaceutical Corporation, priority 1995, dated 2004).

Chains of the proteins cited; added tags and fusions are not shown.
UniProt P35367, whole entry: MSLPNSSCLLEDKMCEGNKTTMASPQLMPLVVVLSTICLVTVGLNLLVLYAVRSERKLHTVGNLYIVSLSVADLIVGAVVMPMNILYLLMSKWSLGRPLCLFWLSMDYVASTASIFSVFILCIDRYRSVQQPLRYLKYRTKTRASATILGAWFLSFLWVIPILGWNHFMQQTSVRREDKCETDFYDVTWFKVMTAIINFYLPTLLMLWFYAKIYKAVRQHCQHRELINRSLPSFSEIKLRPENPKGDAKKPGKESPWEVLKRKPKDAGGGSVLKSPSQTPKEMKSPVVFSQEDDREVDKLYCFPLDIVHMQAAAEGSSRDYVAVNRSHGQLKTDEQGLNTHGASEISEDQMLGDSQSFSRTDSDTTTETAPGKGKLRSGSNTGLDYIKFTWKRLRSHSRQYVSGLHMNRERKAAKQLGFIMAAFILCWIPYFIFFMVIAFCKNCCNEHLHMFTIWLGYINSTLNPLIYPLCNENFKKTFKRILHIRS
UniProt P25021, whole entry: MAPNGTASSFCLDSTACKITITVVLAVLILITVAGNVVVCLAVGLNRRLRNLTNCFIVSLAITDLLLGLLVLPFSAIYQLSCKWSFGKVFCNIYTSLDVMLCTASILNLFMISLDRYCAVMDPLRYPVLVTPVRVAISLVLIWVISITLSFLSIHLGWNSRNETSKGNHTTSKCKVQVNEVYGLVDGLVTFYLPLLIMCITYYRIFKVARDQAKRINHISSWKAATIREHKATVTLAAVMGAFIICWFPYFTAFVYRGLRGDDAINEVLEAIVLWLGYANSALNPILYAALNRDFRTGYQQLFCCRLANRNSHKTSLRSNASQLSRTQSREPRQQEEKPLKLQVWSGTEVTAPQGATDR

The target in one experiment is T1, cloned human Y5 receptor (Homo sapiens, UniProt Q15761).
T1 construct: expressed in transfected cells
T1 sequence (Q15761 1-445): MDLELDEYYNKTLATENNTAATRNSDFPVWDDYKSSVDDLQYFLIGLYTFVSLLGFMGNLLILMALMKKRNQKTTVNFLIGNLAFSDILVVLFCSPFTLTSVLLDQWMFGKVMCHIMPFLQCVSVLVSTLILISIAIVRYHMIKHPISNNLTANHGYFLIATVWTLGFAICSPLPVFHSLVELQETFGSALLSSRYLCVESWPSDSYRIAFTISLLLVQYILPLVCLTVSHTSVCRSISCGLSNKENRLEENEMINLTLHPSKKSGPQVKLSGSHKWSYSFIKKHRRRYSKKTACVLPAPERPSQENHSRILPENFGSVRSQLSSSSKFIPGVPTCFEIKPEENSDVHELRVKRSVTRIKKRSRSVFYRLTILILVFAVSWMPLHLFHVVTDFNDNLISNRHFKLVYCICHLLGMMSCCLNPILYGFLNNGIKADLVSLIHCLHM
In words: Functional assay: block of NPY-induced inhibition of cAMP accumulation in forskolin-stimulated LM(tk-) cells (radioimmunoassay of cAMP). Format: cell-based.

Experiment [1] has as its target T2, human histamine H1 receptor (Homo sapiens, UniProt P35367).
T2 construct: expressed in transfected cells; host or cells: COS-7 cells, transient (DEAE-dextran), plasmid pcEXV-H1 (ATCC 75346)
In words: Binding to human histamine H1 receptor ([3H]mepyramine).

In experiment [2] the target is T3, human histamine H2 receptor (Homo sapiens, UniProt P25021).
T3 construct: expressed in transfected cells; host or cells: COS-7 cells, transient (DEAE-dextran), plasmid pcEXV-H2 (ATCC 75345)
In words: Binding to human histamine H2 receptor ([3H]tiotidine).

Each structure is given as a SMILES string.

One may read the Ki as the equilibrium dissociation constant of an inhibitor or competing ligand from its target. The low end stands for a stronger hold on the target, the high end for a looser hold on the target.

Compound `O=S(=O)(NC[C@H]1CC[C@H](CNC(CO)Cc2ccc(Cl)cc2)CC1)c1cccc2ccccc12` (relative stereo) [Example 77, Naphthalene-1-sulfonic Acid trans-(4-{[2-(4-Chloro-phenyl)-1-hydroxymethyl-ethylamino]-methyl}-cyclohexylmethyl)-amide] had a Kb on cloned human Y5 receptor of 311 nM. For the same compound, the Ki in experiment [1] and in experiment [2] was 372 nM each time.
